Values quoted from earlier work as cited in PMC5412445, “ZeGlobalTox: An Innovative Approach to Address Organ Drug Toxicity Using Zebrafish” (International Journal of Molecular Sciences, 2017).

System: humans
Settings: known toxicity in humans, ref TOXNET (HSDB), Side effects (EMBL), drugs.com, cited from earlier work

Structure (SMILES): C[C@]12CC[C@H](O)C[C@H]1CC[C@@H]1[C@@H]2C[C@@H](O)[C@]2(C)[C@@H](C3=CC(=O)OC3)CC[C@]12O [Digoxigenin, digoxigenin]
- Neurotoxicity (toxicity in humans) ([22],[30],[31],[34],[35]): Safe
- Hepatotoxicity (toxicity in humans) (ema.europa, [24],[26],[27],[32],[33]): Safe
